Measurements published in patent publication US8952128B2, “Somatostatin-dopamine chimeric analogs” (priority 2012, dated 2015).
Where two headings read alike, the source gives them in different places.

Sequences of proteins named here, by UniProt entry; tags and fusion partners are left off. A change or cut given only in a name is not applied to a line headed by its entry.
UniProt P30874: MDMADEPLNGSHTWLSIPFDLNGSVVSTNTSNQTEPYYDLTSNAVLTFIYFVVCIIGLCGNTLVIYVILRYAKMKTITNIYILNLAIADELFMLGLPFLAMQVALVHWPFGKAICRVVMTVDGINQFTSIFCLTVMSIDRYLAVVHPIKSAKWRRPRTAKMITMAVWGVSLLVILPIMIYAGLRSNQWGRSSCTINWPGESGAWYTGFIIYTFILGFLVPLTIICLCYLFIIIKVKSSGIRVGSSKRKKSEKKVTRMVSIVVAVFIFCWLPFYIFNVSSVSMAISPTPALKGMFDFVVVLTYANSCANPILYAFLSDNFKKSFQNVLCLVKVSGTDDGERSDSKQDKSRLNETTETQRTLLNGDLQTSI
UniProt P32745: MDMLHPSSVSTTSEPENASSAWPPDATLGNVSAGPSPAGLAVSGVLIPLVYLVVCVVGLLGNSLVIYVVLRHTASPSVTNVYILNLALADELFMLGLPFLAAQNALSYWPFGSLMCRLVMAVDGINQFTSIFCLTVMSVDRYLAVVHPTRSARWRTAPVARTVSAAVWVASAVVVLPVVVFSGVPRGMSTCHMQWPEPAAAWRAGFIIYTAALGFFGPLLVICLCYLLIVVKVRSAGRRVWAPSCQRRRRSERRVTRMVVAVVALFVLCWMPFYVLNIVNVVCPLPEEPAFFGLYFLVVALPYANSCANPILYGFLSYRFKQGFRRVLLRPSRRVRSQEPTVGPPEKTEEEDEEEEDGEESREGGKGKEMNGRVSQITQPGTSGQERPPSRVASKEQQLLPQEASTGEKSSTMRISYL
UniProt P30872: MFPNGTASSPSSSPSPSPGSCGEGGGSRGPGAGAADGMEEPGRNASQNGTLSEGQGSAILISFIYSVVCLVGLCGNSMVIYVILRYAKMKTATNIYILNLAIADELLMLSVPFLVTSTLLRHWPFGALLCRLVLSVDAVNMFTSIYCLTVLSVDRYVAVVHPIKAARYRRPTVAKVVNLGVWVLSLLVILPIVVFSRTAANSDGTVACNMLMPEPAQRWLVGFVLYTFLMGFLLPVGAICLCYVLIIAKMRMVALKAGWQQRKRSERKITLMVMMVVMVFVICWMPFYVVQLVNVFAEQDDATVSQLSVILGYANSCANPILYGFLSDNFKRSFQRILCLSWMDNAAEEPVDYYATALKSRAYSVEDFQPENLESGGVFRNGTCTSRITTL
UniProt P31391: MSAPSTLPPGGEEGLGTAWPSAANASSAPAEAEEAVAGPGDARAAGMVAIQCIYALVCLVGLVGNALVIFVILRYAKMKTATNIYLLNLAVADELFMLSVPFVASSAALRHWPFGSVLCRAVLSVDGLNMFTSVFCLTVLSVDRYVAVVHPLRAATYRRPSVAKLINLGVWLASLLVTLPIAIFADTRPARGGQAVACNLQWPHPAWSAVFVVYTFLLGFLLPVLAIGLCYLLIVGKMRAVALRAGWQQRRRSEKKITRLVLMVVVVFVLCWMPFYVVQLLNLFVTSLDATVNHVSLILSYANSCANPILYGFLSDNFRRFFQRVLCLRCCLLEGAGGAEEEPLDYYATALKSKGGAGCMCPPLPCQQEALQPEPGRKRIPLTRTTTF
UniProt P35346: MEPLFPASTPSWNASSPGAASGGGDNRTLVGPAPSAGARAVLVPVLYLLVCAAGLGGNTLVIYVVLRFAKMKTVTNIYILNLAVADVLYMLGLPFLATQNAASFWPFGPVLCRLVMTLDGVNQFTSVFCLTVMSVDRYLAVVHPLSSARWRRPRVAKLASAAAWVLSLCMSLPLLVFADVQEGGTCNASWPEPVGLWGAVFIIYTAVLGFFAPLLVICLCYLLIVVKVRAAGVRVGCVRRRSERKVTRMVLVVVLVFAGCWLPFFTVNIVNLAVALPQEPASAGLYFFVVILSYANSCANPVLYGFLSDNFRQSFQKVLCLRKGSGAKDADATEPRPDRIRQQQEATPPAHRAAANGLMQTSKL

Key:
[1] = biological target: T1, hSSTR2 (Homo sapiens (Human), UniProt P30874); experiment: Somatostatin receptor radioligand binding assay, hSSTR2; details: CHO-K1 membranes, [125I-Tyr]-seglitide; read-out: hSSTR2 Ki (nM) ± SEM
[2] = biological target: T2, hDRD2 (Homo sapiens (Human), UniProt P14416); experiment: cell-based; type: cell-based
[3] = biological target: T2, hDRD2; type: binding; details: CHO-K1 membranes, [3H]-spiperone; read-out: hDRD2 Ki (nM) ± SEM
[4] = biological target: T1, hSSTR2; experiment: Intracellular calcium mobilization assay (FLIPR Calcium 4), hSSTR2; type: cell-based;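 further: agonist activity read as intracellular calcium rise in cells expressing human SSTR2, loaded with a calcium-sensitive dye for 60 min at 37 °C, measured by FLIPR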
[5] = biological target: hSSTR3 (Homo sapiens (Human), UniProt P32745); experiment: Somatostatin receptor radioligand binding assay, hSSTR3; details: CHO-K1 membranes, [125I-Tyr11]-SRIF-14; read-out: hSSTR3 Ki (nM) ± SEM
Protocol: (§1) The affinities of a test compound for the human somatostatin receptors were determined by radioligand binding assays in CHO-K1 cells stably transfected with each of the human somatostatin receptor subtypes, hSSTR1-5. The cDNA coding sequences of hSSTR1 (GenBank accession No. NM_001049.1), hSSTR2 (GenBank accession No. XM—012697.1), hSSTR3 (GenBank accession No. XM—009963.1), hSSTR4 (GenBank accession No. NM_001052.1), and hSSTR5 (GenBank accession No. XM—012565.1) were subcloned into the mammalian expression vector pcDNA3.1 (Life Technologies). Clonal cell lines stably expressing each of the somatostatin receptors were obtained by transfection into CHO-K1 cells (ATCC) and subsequently selected with culture media containing 0.8 mg/mL of G418 (Life Technologies).
(§2) Membranes for in vitro receptor binding assays were obtained by the following procedures. CHO-K1 cells expressing one of the somatostatin receptors were homogenized in ice-cold buffer with 10 mM Tris-HCl, 5 mM EDTA, 3 mM EGTA, 1 mM phenylmethylsuphonyl fluoride, pH 7.6, using Polytron PT10-35GT (Kinematica) at 18,000 rpm for 30 seconds and centrifuged at 500×g for 10 minutes. The supernatant containing the plasma membranes was centrifuged at 100,000×g for 30 minutes and the pellet was resuspended in buffer containing 20 mM glycine-glycine, 1 mM MgCl2, 250 mM sucrose, pH 7.2, for storage at −80° C. […]

[6] = biological target: hSSTR1 (Homo sapiens (Human), UniProt P30872); experiment: Somatostatin receptor radioligand binding assay, hSSTR1; details: CHO-K1 membranes, [125I-Tyr11]-SRIF-14; read-out: hSSTR1 Ki (nM) ± SEM
[7] = biological target: hSSTR4 (Homo sapiens (Human), UniProt P31391); experiment: Somatostatin receptor radioligand binding assay, hSSTR4; details: CHO-K1 membranes, [125I-Tyr11]-SRIF-14; read-out: hSSTR4 Ki (nM) ± SEM
Protocol: as §1, §2

[8] = biological target: hSSTR5 (Homo sapiens (Human), UniProt P35346); experiment: Somatostatin receptor radioligand binding assay, hSSTR5; details: CHO-K1 membranes, [125I-Tyr]-[DPhe-cyclo(Cys-Tyr-DTrp-Lys-Val-Cys)-Thr-NH2]; read-out: hSSTR5 Ki (nM) ± SEM
[9] = calcium mobilization, read-out: hDRD2 EC50 (nM) ± SEM
[10] = calcium mobilization, read-out: hSSTR2 EC50 (nM) ± SEM

Row | SMILES | Ki [1] | EC50 [2, 9] | Ki [3] | EC50 [4, 10] | Ki [5] | Ki [6] | Ki [7] | Ki [8] | EC50 [2] | EC50 [4]
1 | C[C@@H](O)[C@@H]1NC(=O)[C@H](CCCCN)NC(=O)[C@@H](Cc2c[nH]c3ccccc23)NC(=O)[C@H](Cc2ccccc2)NC(=O)[C@H](Cc2ccccc2)NC(=O)[C@H](CCCNC(=N)N)NC(=O)[C@H](NCCC[C@@H]2C[C@@H]3c4cccc5[nH]cc(c45)C[C@H]3N(C)C2)CCCCNC(=O)[C@H](Cc2ccc(F)cc2)NC1=O [Compound 1, (D-6-methyl-8β-ergolinyl)-propionyl-psi(CH2NH)-cyclo(DLys-Arg-Phe-Phe-DTrp-Lys-Thr-4FPhe)] | 0.04 ± 0.02 nM | 22.5 ± 0.5 nM | 10.8 ± 1.4 nM | 3.1 nM |  |  |  |  |  | 
2 | C[C@@H](O)[C@@H]1NC(=O)[C@H](CCCCN)NC(=O)[C@@H](Cc2c[nH]c3ccccc23)NC(=O)[C@H](Cc2ccccc2)NC(=O)[C@H](Cc2ccccc2)NC(=O)[C@H](CCCNC(=N)N)NC(=O)[C@H](NCCSC[C@@H]2C[C@@H]3c4cccc5[nH]cc(c45)C[C@H]3N(C)C2)CCCCNC(=O)[C@H](Cc2ccc(F)cc2)NC1=O [Compound 6, Dop1-psi(CH2NH)-cyclo(DLys-Arg-Phe-Phe-DTrp-Lys-Thr-4FPhe)] | 0.3 ± 0.06 nM | 33.6 ± 3.7 nM | 101 ± 17.9 nM | 12.7 ± 3.6 nM | 2.1 ± 0.9 nM | 32.2 ± 8.1 nM | 61.9 ± 25 nM | 0.52 ± 0.1 nM |  | 
3 | C[C@@H](O)[C@@H]1NC(=O)[C@H](CCCCN)NC(=O)[C@@H](Cc2c[nH]c3ccccc23)NC(=O)[C@H](Cc2ccncc2)NC(=O)[C@H](Cc2ccccc2)NC(=O)[C@H](CCCNC(=N)N)NC(=O)[C@H](NCCSC[C@@H]2C[C@@H]3c4cccc5[nH]cc(c45)C[C@H]3N(C)C2)CCCCNC(=O)[C@H](Cc2ccc(O)cc2)NC1=O [Compound 7, Dop1-psi(CH2NH)-cyclo(DLys-Arg-Phe-4Pal-DTrp-Lys-Thr-Tyr)] | 0.08 ± 0.02 nM | 5 ± 0.7 nM | 34.3 ± 16.8 nM | 2.2 ± 0.5 nM | 13.1 ± 2.8 nM | 100 ± 18.5 nM | 10.8 ± 2.8 nM | 0.51 ± 0.1 nM |  | 
4 | C[C@@H](O)[C@@H]1NC(=O)[C@H](CCCCN)NC(=O)[C@@H](Cc2c[nH]c3ccccc23)NC(=O)[C@H](Cc2ccccc2)NC(=O)[C@H](Cc2ccccc2)NC(=O)[C@H](CCCNC(=N)N)NC(=O)[C@H](NC(=O)[C@@H](Cc2ccc(O)cc2)NC(=O)CSC[C@@H]2C[C@@H]3c4cccc5[nH]cc(c45)C[C@H]3N(C)C2)CCCCNC(=O)[C@H](Cc2ccccc2)NC1=O [Compound 37, Dop1-DTyr-cyclo(DLys-Arg-Phe-Phe-DTrp-Lys-Thr-Phe)] | 1.38 ± 0.36 nM | 33.4 ± 14.4 nM | 25.3 ± 2.4 nM | 23.1 ± 4.3 nM |  |  |  | 2.45 nM |  | 
5 | C[C@@H](O)[C@@H]1NC(=O)[C@H](CCCCN)NC(=O)[C@@H](Cc2c[nH]c3ccccc23)NC(=O)[C@H](Cc2ccccc2)NC(=O)[C@H](Cc2ccccc2)NC(=O)[C@H](CCCNC(=N)N)NC(=O)[C@H](NC[C@H](Cc2ccc(O)cc2)NC(=O)CCN(C[C@@H]2C[C@@H]3c4cccc5[nH]cc(c45)C[C@H]3N(C)C2)S(C)(=O)=O)CCCCNC(=O)[C@H](Cc2ccc(F)cc2)NC1=O [Compound 42, [N-(D-6-methyl-8β-ergolinylmethyl)-N-(methylsulfonyl)]-aminopropionyl-Tyr-psi(CH2NH)-cyclo(DLys-Arg-Phe-Phe-DTrp-Lys-Thr-4FPhe)] | 0.69 nM | 65.2 ± 13.7 nM | 285 nM | 30.7 ± 15 nM |  |  |  |  |  | 
6 | C[C@@H](O)[C@@H]1NC(=O)[C@H](CCCCN)NC(=O)[C@@H](Cc2c[nH]c3ccccc23)NC(=O)[C@H](Cc2ccccc2)NC(=O)[C@H](Cc2ccccc2)NC(=O)[C@H](CCCNC(=N)N)NC(=O)[C@H](NC(=O)CSC[C@@H]2C[C@@H]3c4cccc5[nH]cc(c45)C[C@H]3N(C)C2)CCNC(=O)[C@H](Cc2ccccc2)NC1=O [Reference Compound A, Dop1-cyclo(DDab-Arg-Phe-Phe-DTrp-Lys-Thr-Phe), reference compound] |  |  |  |  |  |  |  |  | 401 ± 141 nM | 26.5 ± 2.3 nM
7 | C[C@@H](O)[C@@H]1NC(=O)[C@H](CCCCN)NC(=O)[C@@H](Cc2c[nH]c3ccccc23)NC(=O)[C@H](Cc2ccccc2)NC(=O)[C@H](Cc2ccccc2)NC(=O)[C@H](CCCNC(=N)N)NC(=O)[C@H](NC(=O)[C@H](Cc2ccc(O)cc2)NC(=O)CSC[C@@H]2C[C@@H]3c4cccc5[nH]cc(c45)C[C@H]3N(C)C2)CCNC(=O)[C@H](Cc2ccccc2)NC1=O [Reference Compound B, Dop1-Tyr-cyclo(DDab-Arg-Phe-Phe-DTrp-Lys-Thr-Phe), reference compound] |  |  |  |  |  |  |  |  | 62.8 ± 9.8 nM | 18.8 ± 4.8 nM
